Measurements: US8288365B2, “Phenazopyridine compounds” (Pinnacle Pharmaceuticals, Inc., priority 2008, dated 2012)

Test: PAP pharmacokinetics in rats after oral Gly-PAP salt forms
Type: in vivo
Conditions: PAP in rat plasma, 2.5 mg/kg PAP base equivalent (2.8 for free base)
Experimental: The oral bioavailability of PAP (phenazopyridine) prodrugs was evaluated in healthy rats. All the PAP amide (amino acid derivatives) bases were dissolved in 0.1N HCl (the same result can be obtained with a lower molarity), while the carbamates were dissolved in PEG-400 due to the very poor aqueous solubility of the PAP-carbamates. In general, all of the amino acid amide derivatives of PAP had higher water solubility than those of the PAP-carbamates. In another PK study, PAP.HCL salt, Gly-PAP.HCl salt and Gly-PAP.mesylate salt were dissolved in water, affording a clear solution in each case prior to oral administration.
The rats were fasted overnight prior to dosing. Appropriate amount of each compound was administered via gastric gavages, and at predetermined time (1, 2, 4, 6, and 24 h) blood samples were withdrawn from the rats. The whole blood was centrifuged immediately, and supernatant (plasma) was collected. The plasma samples were assayed for PAP using LC-MS-MS.
The pharmacokinetics of various salts of Gly-PAP were compared following oral administration to rats. All salt forms improved the oral bioavailability of phenazopyridine as compared to biovailability from phenazopyridine HCl.

Question: For phenazopyridine hydrochloride [PAP•HCl], which T1/2 is on record?
Answer: 48 min
